Protein sequences, listed by entry. Tags and fused reporters are not part of them. Lines headed by an entry give the natural chain unless they say otherwise; changes in a name come on top. Residues count along the entry.
UniProt P35372, whole entry: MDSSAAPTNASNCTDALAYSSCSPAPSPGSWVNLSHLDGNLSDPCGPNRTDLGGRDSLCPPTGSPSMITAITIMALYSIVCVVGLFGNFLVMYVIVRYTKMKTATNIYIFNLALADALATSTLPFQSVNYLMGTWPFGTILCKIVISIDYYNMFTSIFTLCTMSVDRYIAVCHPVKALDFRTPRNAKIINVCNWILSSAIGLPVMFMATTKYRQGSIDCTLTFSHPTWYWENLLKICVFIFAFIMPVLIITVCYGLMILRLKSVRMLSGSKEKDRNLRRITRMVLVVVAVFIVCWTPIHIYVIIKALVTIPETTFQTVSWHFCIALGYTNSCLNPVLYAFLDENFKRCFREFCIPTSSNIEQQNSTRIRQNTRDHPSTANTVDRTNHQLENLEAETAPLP
UniProt Q12879, 23-1464 limits assumed: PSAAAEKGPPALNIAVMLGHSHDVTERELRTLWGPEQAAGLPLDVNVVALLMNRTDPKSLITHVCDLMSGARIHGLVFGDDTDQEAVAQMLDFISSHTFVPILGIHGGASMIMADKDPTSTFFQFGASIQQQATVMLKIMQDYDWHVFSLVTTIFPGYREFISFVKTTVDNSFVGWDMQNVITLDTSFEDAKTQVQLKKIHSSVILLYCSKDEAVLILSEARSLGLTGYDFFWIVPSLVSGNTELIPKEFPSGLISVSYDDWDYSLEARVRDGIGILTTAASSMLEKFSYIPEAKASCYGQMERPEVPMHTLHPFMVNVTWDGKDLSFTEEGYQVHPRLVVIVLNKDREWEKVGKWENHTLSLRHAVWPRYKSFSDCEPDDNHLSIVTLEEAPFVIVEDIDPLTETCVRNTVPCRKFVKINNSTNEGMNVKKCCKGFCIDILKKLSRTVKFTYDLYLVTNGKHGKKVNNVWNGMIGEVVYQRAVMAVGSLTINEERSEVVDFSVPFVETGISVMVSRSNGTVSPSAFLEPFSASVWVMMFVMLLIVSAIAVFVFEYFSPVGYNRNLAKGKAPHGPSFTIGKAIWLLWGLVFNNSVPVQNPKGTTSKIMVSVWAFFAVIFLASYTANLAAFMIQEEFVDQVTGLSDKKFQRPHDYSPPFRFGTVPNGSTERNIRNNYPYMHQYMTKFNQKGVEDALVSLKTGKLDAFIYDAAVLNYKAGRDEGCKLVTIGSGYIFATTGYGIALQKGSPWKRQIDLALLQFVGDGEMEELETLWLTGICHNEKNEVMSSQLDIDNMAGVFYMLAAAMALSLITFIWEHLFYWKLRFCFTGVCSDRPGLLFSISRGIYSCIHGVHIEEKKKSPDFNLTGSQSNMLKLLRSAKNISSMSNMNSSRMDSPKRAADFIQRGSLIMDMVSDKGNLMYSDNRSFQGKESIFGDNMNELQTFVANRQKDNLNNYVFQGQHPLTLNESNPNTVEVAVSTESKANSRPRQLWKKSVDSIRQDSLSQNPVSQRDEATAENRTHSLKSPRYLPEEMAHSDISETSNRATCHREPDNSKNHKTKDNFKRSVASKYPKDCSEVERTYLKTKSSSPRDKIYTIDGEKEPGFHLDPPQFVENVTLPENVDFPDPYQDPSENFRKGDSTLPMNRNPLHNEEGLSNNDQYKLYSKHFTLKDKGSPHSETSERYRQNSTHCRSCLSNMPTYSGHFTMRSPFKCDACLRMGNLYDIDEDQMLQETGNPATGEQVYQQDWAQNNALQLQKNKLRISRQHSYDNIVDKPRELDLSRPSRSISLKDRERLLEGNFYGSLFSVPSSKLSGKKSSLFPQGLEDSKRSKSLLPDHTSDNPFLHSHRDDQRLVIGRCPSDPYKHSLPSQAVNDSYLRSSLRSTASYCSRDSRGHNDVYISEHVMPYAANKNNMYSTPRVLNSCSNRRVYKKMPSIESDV

According to PMC7348096:

Assays:
human μ receptors [1] = target: T1, human μ receptors (Homo sapiens, UniProt P35372); test: GloSensor cAMP accumulation assay; settings: concentrations up to 100 μM
human μ receptors [2] = target: T1, human μ receptors; test: PathHunter β‐arrestin2 recruitment assay; settings: concentrations up to 100 μM
GluN1/N2A NMDA receptors = GluN1/N2A NMDA receptors (Homo sapiens, UniProt Q05586+Q12879); test: Intracellular Ca2+ imaging (Fura‐2) of NMDA/glycine evoked responses in Ltk‐ cells; settings: 30 μM NMDA + 50 μM glycine; memantine 10 μM, MT‐45, M1, M17 30 μM pre‐applied; paired t‐test

Row | SMILES | efficacy in reducing cAMP accumulation (human μ receptors [1]) | efficacy in β‐arrestin2 recruitment (human μ receptors [2]) | effect on amplitude of NMDA and glycine induced intracellular Ca2+ response (GluN1/N2A NMDA receptors)
1 | C1CCC(N2CCNCC2)CC1 | very modest efficacy | Neither compound showed any efficacy | no statistically significant change
2 | CC12CC3CC(C)(C1)CC(N)(C3)C2 | – | – | reduced the amplitude
